A word on the inhibition: it is the change of the read-out against control, counted positive when it falls.

Drawing on PubChem BioAssay AID588501 (NMMLSC, 2011), this text covers inhibition for two compounds.

Structures are written as SMILES. This is a selection; strong and weak results do not stand in their true shares. Calls of active or inactive are those of the source. Cut-off read from the data, not from the text of the source: active = inhibition above about 30%; inconclusive = no clear call, values can overlap the other calls; inactive = below that.

The experiment concerns the target Lethal factor (Bacillus anthracis) (UniProt P15917). In words: Bacillus anthracis LF protease inhibitors, primary screen, biochemical, multiplex microsphere, MLPCN library (AID 588501). Note: plate controls were buffer without enzyme for full effect and enzyme alone for no effect. The note with it: multiplex microsphere protease cleavage assay, at 10 µM, active compounds read high.
`CCC(=O)N(c1ccccc1)C1(COC)CCN(CCn2nnn(CC)c2=O)CC1`: the inhibition is inactive: -5.6%. On to `CCC(=O)N(c1ccccc1)C1(COC)CCN(CCc2cccs2)CC1`, for which the inhibition is inactive: -1.3%.
